Data reported in PubChem BioAssay AID743126 (The Scripps Research Institute Molecular Screening Center, 2013).
The list shows a part of the results, in another mix than the full data. The source made the active and inactive calls.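 How the source made its calls: active means inhibition above mean plus 3 SD of compounds lying within the high and low control bounds (cut at about 19% in these data); inactive means the rest.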

Amino acid sequences for entries named in this document (tags omitted).
UniProt Q9NZ20, whole entry: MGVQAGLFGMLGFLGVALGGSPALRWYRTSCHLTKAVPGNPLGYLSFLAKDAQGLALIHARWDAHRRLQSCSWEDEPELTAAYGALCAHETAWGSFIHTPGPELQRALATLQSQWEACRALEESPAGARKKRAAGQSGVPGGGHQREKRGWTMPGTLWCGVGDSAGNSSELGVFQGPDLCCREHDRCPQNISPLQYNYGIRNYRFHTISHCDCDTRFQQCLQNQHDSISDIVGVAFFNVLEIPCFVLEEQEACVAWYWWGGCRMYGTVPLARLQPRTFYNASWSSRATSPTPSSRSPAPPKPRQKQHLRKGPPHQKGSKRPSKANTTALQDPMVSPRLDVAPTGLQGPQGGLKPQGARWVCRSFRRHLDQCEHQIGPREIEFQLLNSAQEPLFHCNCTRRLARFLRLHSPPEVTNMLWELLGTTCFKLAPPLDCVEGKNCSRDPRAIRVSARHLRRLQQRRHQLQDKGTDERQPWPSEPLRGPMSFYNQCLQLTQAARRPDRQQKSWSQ

biological target: Group 3 secretory phospholipase A2 (Homo sapiens) (UniProt Q9NZ20); experiment: HGIII-sPLA2 enzyme inhibition – biochemical, QFRET, BODIPY PC-A2 liposome substrate, primary screen (AID 743126); conditions: QFRET BODIPY PC-A2 liposome hydrolysis, fluorescence; at 12.2 µM; hits give high values;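 further: 0% = median of test compound wells and 100% = no enzyme DMSO wells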

Row | SMILES | inhibition
1 | N#Cc1ccc(C(=O)NCC2(N3CCCCC3)CCCCC2)cc1 | inactive: 4.05%
2 | CC(C)(C)OC(=O)N1CCC(N(C(=O)c2ccccc2)c2ccc(Cl)cc2)CC1 | inactive: 1.49%
3 | CC(C)(C)n1nnnc1C(c1cccc2ccccc12)N1CCC(n2c(=O)[nH]c3ccccc32)CC1 (stereo not given) | inactive: -15.5%
4 | CN(C)C1(CNC(=O)c2cccc(C#N)c2)CCCCC1 | inactive: 2.79%
5 | Cc1cc(N(CCCl)CCCl)ccc1C=O | inactive: 0.33%
6 | O=c1[nH]c2ccccc2n1C1CCN(C(c2ccccc2)c2nnnn2C2CCCC2)CC1 (stereo not given) | inactive: 1.23%
7 | CCCN1CCC(Nc2cc(OC)cc(OC)c2)CC1 | inactive: 13.7%
8 | C/C(N)=N\P(=O)(Oc1ccccc1)Oc1ccccc1 | inactive: 4.23%
9 | c1ccc(CN2CCC(Nc3ccccc3)CC2)cc1 | inactive: 3.42%
10 | NC(=O)C1(Nc2ccccc2)CCN(Cc2ccccc2)CC1 | inactive: -0.36%
11 | O=c1[nH]c2ccccc2n1C1CCN(C(c2cccs2)c2nnnn2C2CCCCC2)CC1 (stereo not given) | inactive: -8.57%
12 | O=c1[nH]c2ccccc2n1C1CCN(C(c2ccnc3ccccc23)c2nnnn2C2CCCC2)CC1 (stereo not given) | inactive: -10.5%
13 | COc1ccc(C(=O)NCC2(N3CCOCC3)CCCCC2)cc1OC | inactive: 1.28%
14 | COc1cc(C(=O)NCC2(N3CCOCC3)CCCCC2)cc(OC)c1C | inactive: 14.3%
15 | CCCCn1nnnc1C(c1ccccc1)N1CCC(n2c(=O)[nH]c3ccccc32)CC1 (stereo not given) | inactive: -19.9%
16 | O=C(NCC1(N2CCOCC2)CCCCC1)c1cc(Br)ccc1Cl | inactive: 10.9%
17 | O=c1[nH]c2ccccc2n1C1CCN(C(c2cccs2)c2nnnn2C2CCCC2)CC1 (stereo not given) | inactive: -16.3%
18 | O=C(OC1CN2CCC1CC2)C1c2ccccc2C=Cc2ccccc21 (stereo not given) | inactive: -14.6%
19 | CCCCn1nnnc1C(c1cccc(OC)c1OC)N1CCC(n2c(=O)[nH]c3ccccc32)CC1 (stereo not given) | inactive: -20.9%
20 | CCOC(=O)N1CCC(Nc2ccc(C)cc2)CC1 | inactive: 4.67%
21 | COc1cccc(C(c2nnnn2C(C)(C)C)N2CCC(n3c(=O)[nH]c4ccccc43)CC2)c1OC (stereo not given) | inactive: -10.6%
22 | N/C(=N\O)c1c(N)no[n+]1[O-] | inactive: 2.59%

Row | SMILES | inhibition
23 | NN(c1ccccc1)C1CCN(CCc2ccccc2)CC1 | inactive: -2.78%
24 | O=C(O)C1(Nc2ccccc2)CCN(Cc2ccccc2)CC1 | inactive: -2.52%
25 | CC(C)(C)OC(=O)N1CCC(Nc2ccccc2)CC1 | inactive: 6.06%
26 | O=c1[nH]c2ccccc2n1C1CCN(C(c2cc3ccccc3o2)c2nnnn2C2CCCC2)CC1 (stereo not given) | inactive: -18.7%
27 | CCCOc1ccc(C(=O)NCC2(N(C)C)CCCCC2)cc1 | inactive: 14.7%
28 | CN1CCC(Nc2ccc(F)c(Cl)c2)CC1 | inactive: -0.8%
29 | CCOc1ncccc1C(=O)NCC1(N2CCOCC2)CCCCC1 | inactive: 0.26%
30 | CN1CCC(Nc2ccc(Cl)cc2)CC1 | inactive: 9.92%
31 | COc1cccc(C(=O)N(c2cc(C)cc(C)c2)C2CCN(C(=O)OC(C)(C)C)CC2)c1 | inactive: -5.8%
32 | COc1cc(OC)cc(C(=O)NCC2(N3CCOCC3)CCCCC2)c1 | inactive: -2.72%
33 | COc1cccc(C(c2nnnn2C2CCCC2)N2CCC(n3c(=O)[nH]c4ccccc43)CC2)c1OC (stereo not given) | inactive: -14.2%
34 | CCC(CO)(C(=O)OC1CN2CCC1CC2)c1ccccc1 (stereo not given) | inactive: -5.09%
35 | Fc1ccccc1NC1CCN(Cc2ccccc2)CC1 | inactive: -2.59%
36 | Cc1ccc(C(=O)NCC2(N3CCCCC3)CCCCC2)o1 | inactive: 5.89%
37 | Cc1ccc(NC2(C#N)CCN(Cc3ccccc3)CC2)cc1 | inactive: 4.13%
38 | CCC(c1nnnn1C1CCCCC1)N1CCC(n2c(=O)[nH]c3ccccc32)CC1 (stereo not given) | inactive: 2.18%
39 | COc1cccc(C(c2nnnn2C2CCCCC2)N2CCC(n3c(=O)[nH]c4ccccc43)CC2)c1OC (stereo not given) | inactive: -25.2%
40 | CC(=O)N(c1ccccc1)C1CCNCC1 | inactive: 16.6%
41 | COc1cc(OC)cc(C(=O)NCC2(N3CCCCC3)CCCCC2)c1 | inactive: 0.48%
42 | O=c1[nH]c2ccccc2n1C1CCN(C(c2ccnc3ccccc23)c2nnnn2C2CCCCC2)CC1 (stereo not given) | inactive: -4.54%
43 | CN(C)c1ccc(C(=O)NCC2(N3CCCCC3)CCCCC2)cc1 | inactive: 2.84%
44 | Cn1c(=O)[nH]cc(N(CCCl)CCCl)c1=O | inactive: 1.22%

Row | SMILES | inhibition
45 | O=C(NCC1(N2CCCCC2)CCCCC1)c1ccco1 | inactive: -8.9%
46 | CCN1CCC(Nc2cccc(F)c2)CC1 | inactive: 1.59%
47 | COc1ccc(C(c2nnnn2C2CCCCC2)N2CCC(n3c(=O)[nH]c4ccccc43)CC2)cc1 (stereo not given) | inactive: -1.73%
48 | CC(C)(C)n1nnnc1C(c1ccnc2ccccc12)N1CCC(n2c(=O)[nH]c3ccccc32)CC1 (stereo not given) | inactive: -10.8%
49 | Cc1ccccc1NC1(C#N)CCN(Cc2ccccc2)CC1 | inactive: -1.9%
50 | CCOC(=O)N1CCC(Nc2ccc(F)cc2)CC1 | inactive: 6.9%
51 | COc1ccc(NC2CCN(CCc3ccccc3)CC2)c(OC)c1 | inactive: 12.8%
52 | CCCCOc1ccc(C(=O)NCC2(N3CCOCC3)CCCCC2)cc1 | inactive: 1.93%
53 | CCCCn1nnnc1C(c1cc2ccccc2o1)N1CCC(n2c(=O)[nH]c3ccccc32)CC1 (stereo not given) | inactive: -5.57%
54 | O=P1(N(CCCl)CCCl)SCCCS1 | inactive: 6.04%
55 | O=C(NCC1(N2CCCCC2)CCCCC1)c1ccc(F)cc1 | inactive: 0.6%
56 | O=C1CCN(Cc2ccccc2)CC1 | inactive: 4.69%
57 | CC(C)(C)n1nnnc1C(c1ccccc1)N1CCC(n2c(=O)[nH]c3ccccc32)CC1 (stereo not given) | inactive: -0.02%
58 | CCOc1ccc(C)cc1CN(CCCl)CCCl | inactive: 5.09%
59 | CCOC(=O)N1CCC(Nc2cccc(C)c2)CC1 | inactive: 15.5%
60 | COc1cc(C(=O)NCC2(N(C)C)CCCCC2)ccc1OC(F)F | inactive: 14.5%
61 | O=c1[nH]c2ccccc2n1C1CCN(C(c2cccc3ccccc23)c2nnnn2C2CCCC2)CC1 (stereo not given) | inactive: -2.45%
62 | O=c1[nH]c2ccccc2n1C1CCN(C(c2ccccc2)c2nnnn2C2CCCCC2)CC1 (stereo not given) | inactive: 12%
63 | Cc1cccc(NC2(C#N)CCN(Cc3ccccc3)CC2)c1 | inactive: -0.72%
64 | CSc1ccccc1C(=O)NCC1(N2CCCCC2)CCCCC1 | inactive: 2.44%
65 | CC(C)(C)OC(=O)N1CCC(N(C(=O)c2ccccc2)c2ccc(F)cc2)CC1 | inactive: -2.53%
66 | COc1ccc(C(=O)NCC2(N3CCCCC3)CCCCC2)c(OC)c1OC | inactive: 5.76%

Row | SMILES | inhibition
67 | CCC(c1nnnn1C1CCCC1)N1CCC(n2c(=O)[nH]c3ccccc32)CC1 (stereo not given) | inactive: -3.86%
68 | COc1ccc(C(=O)NCC2(N3CCCCC3)CCCCC2)cc1 | inactive: 2.36%
69 | O=C(NCC1(N2CCCCC2)CCCCC1)c1cccs1 | inactive: 2.13%
70 | CCCCn1nnnc1C(CC)N1CCC(n2c(=O)[nH]c3ccccc32)CC1 (stereo not given) | inactive: 15.9%
71 | CCCCn1nnnc1C(c1cccs1)N1CCC(n2c(=O)[nH]c3ccccc32)CC1 (stereo not given) | inactive: -17%
72 | O=C(NCC1(N2CCCCC2)CCCCC1)c1ccc(=O)[nH]c1 | inactive: 6.7%
73 | COc1ccc(Cl)cc1C(=O)NCC1(N2CCOCC2)CCCCC1 | inactive: -0.2%
74 | O=C(NCC1(N2CCCCC2)CCCCC1)c1ccc(Cl)s1 | inactive: 9.89%
75 | N#CC1(Nc2ccccc2)CCN(Cc2ccccc2)CC1 | inactive: 1.61%
76 | O=c1[nH]c2ccccc2n1C1CCN(C(c2cc3ccccc3o2)c2nnnn2C2CCCCC2)CC1 (stereo not given) | inactive: 3.04%
77 | O=C(OC1CN2CCC1CC2)C1c2ccccc2Oc2ccccc21 (stereo not given) | inactive: -3.8%
78 | CCCCn1nnnc1C(c1ccc(OC)cc1)N1CCC(n2c(=O)[nH]c3ccccc32)CC1 (stereo not given) | inactive: -14.2%
79 | CCOC(=O)N1CCC(Nc2ccc(OC)cc2)CC1 | inactive: 4.92%
80 | Cc1cc(C)cc(N(C(=O)c2ccccc2)C2CCN(C(=O)OC(C)(C)C)CC2)c1 | inactive: -5.3%
81 | O=C(NCC1(N2CCCCC2)CCCCC1)c1ccc(Cl)nc1 | inactive: 5.82%
82 | O=c1[nH]c2ccccc2n1C1CCN(C(c2ccccc2OC(F)(F)F)c2nnnn2C2CCCCC2)CC1 (stereo not given) | inactive: -0.08%
83 | O=C(NCC1(N2CCOCC2)CCCCC1)c1cc2ccccc2o1 | inactive: -9.97%
84 | CCC(c1nnnn1C(C)(C)C)N1CCC(n2c(=O)[nH]c3ccccc32)CC1 (stereo not given) | inactive: -3.3%
85 | O=C(NCC1(N2CCOCC2)CCCCC1)c1cc(F)c(F)cc1Cl | inactive: 6.59%
86 | COc1cc(OC)c(C(=O)NCC2(N(C)C)CCCCC2)cc1OC | inactive: 14.6%
87 | CCCCn1nnnc1C(c1ccnc2ccccc12)N1CCC(n2c(=O)[nH]c3ccccc32)CC1 (stereo not given) | inactive: -24.3%
88 | CC(C)c1ccc(NC2CCN(C(=O)OC(C)(C)C)CC2)cc1 | inactive: -0.75%

Row | SMILES | inhibition
89 | CN(C)c1cccc(C(=O)NCC2(N3CCCCC3)CCCCC2)c1 | inactive: 7.09%
90 | COc1ccc(CN(CCCl)CCCl)cc1Cl | inactive: 10%
91 | COC(=O)C1(Nc2ccccc2)CCN(Cc2ccccc2)CC1 | inactive: -0.01%
92 | COc1ccc(C(c2nnnn2C2CCCC2)N2CCC(n3c(=O)[nH]c4ccccc43)CC2)cc1 (stereo not given) | inactive: -4.19%
93 | CCCOc1ccc(C(=O)NCC2(N(C)C)CCCCC2)cc1OC | inactive: 6.15%
94 | Cc1ccc(C(=O)NCC2(N(C)C)CCCCC2)o1 | inactive: 5.87%
95 | CN1CCC(Nc2cccc(F)c2)CC1 | inactive: -0.92%
96 | O=C(NCC1(N2CCCCC2)CCCCC1)c1cncc(Br)c1 | inactive: -8.91%
97 | O=c1[nH]c2ccccc2n1C1CCN(C(c2ccccc2OC(F)(F)F)c2nnnn2C2CCCC2)CC1 (stereo not given) | inactive: 13.7%
98 | N#CC1(Nc2ccccc2)CCN(CCc2ccccc2)CC1 | inactive: 1.43%
99 | CCN1CCC(Nc2ccc(Cl)cc2)CC1 | active: 22%
100 | O=C(NCC1(N2CCCCC2)CCCCC1)c1cccc([N+](=O)[O-])c1 | inactive: -1%
101 | CSc1ccc(C(=O)NCC2(N3CCOCC3)CCCCC2)cc1 | inactive: 0.84%
102 | O=C(NCC1(N2CCCCC2)CCCCC1)c1ccc(OC(F)F)cc1 | inactive: 9.12%
103 | CC(C)(C)n1nnnc1C(c1ccccc1OC(F)(F)F)N1CCC(n2c(=O)[nH]c3ccccc32)CC1 (stereo not given) | inactive: -8.11%
104 | O=C(NCC1(N2CCOCC2)CCCCC1)c1cc(=O)[nH]c2ccccc12 | inactive: 5.41%
105 | COc1cc(C(=O)NCC2(N3CCCCC3)CCCCC2)ccc1OC(F)F | inactive: 2.82%
106 | CC(C)c1ccc(C(=O)NCC2(N3CCOCC3)CCCCC2)cc1 | inactive: -1.89%
107 | COc1ccc(NC2CCN(C(=O)OC(C)(C)C)CC2)cc1 | inactive: 12.5%
108 | CN1CCN(CCOC(=O)C(O)(c2ccccc2)c2ccccc2)CC1 | inactive: 3.17%
109 | CCCCn1nnnc1C(c1cccc2ccccc12)N1CCC(n2c(=O)[nH]c3ccccc32)CC1 (stereo not given) | inactive: -23.2%
110 | O=C(NCC1(N2CCCCC2)CCCCC1)c1cccc(C(F)(F)F)c1 | inactive: 13.8%
